Laboratory results taken from PubChem BioAssay (NCI).
Only a part is listed here, and it is no random draw.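 Single-concentration screen, 48 h exposure, 96-well plates. Endpoint: percent growth. Below 10 = active.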 The source made the active and inactive calls.

Experiments:
Experiment in all cases: NCI-60 one-dose screen, 48 h (100 = growth as untreated, 0 = no growth, -100 = all killed)
DU-145 prostate = conditions: 10 µM unless noted
K-562 leukemia = conditions: 10 µM unless noted
MALME-3M melanoma = conditions: 10 µM unless noted
MDA-MB-231 breast = conditions: 10 µM unless noted
RXF 393 renal = conditions: 10 µM unless noted
SF-268 CNS = conditions: 10 µM unless noted
SF-295 CNS = conditions: 10 µM unless noted
SF-539 CNS = conditions: 10 µM unless noted
UACC-257 melanoma = conditions: 10 µM unless noted
M14 melanoma = conditions: 10 µM unless noted
HCT-15 colon = conditions: 10 µM unless noted
HT29 colon = conditions: 10 µM unless noted
SNB-75 CNS = conditions: 10 µM unless noted
SNB-19 CNS = conditions: 10 µM unless noted
U251 CNS = conditions: 10 µM unless noted
PC-3 prostate = conditions: 10 µM unless noted
SK-MEL-5 melanoma = conditions: 10 µM unless noted
UACC-62 melanoma = conditions: 10 µM unless noted
LOX IMVI melanoma = conditions: 10 µM
SK-MEL-28 melanoma = conditions: 10 µM unless noted

Measured: growth

ClCCN1CCNCC1
inactive: DU-145 prostate 117% | K-562 leukemia 102% | MALME-3M melanoma 111% | MDA-MB-231 breast 101% | RXF 393 renal 102% | SF-268 CNS 105% | SF-295 CNS 92.6% | SF-539 CNS 99.8% | UACC-257 melanoma 98.4% | M14 melanoma 98.8% | HCT-15 colon 98.9% | HT29 colon 102% | SNB-75 CNS 96.4% | SNB-19 CNS 97.5% | U251 CNS 96% | PC-3 prostate 109% | SK-MEL-5 melanoma 101% | UACC-62 melanoma 97.2% | LOX IMVI melanoma 98.7% | SK-MEL-28 melanoma 106%

O=[As](O)(c1ccccc1)c1ccc(O)cc1
inactive: DU-145 prostate 111% | K-562 leukemia 101% | MALME-3M melanoma 108% | MDA-MB-231 breast 108% | RXF 393 renal 67.2% | SF-268 CNS 110% | SF-295 CNS 101% | SF-539 CNS 88% | UACC-257 melanoma 52.7% | M14 melanoma 99.4% | HCT-15 colon 96.4% | HT29 colon 106% | SNB-75 CNS 101% | SNB-19 CNS 96.4% | U251 CNS 96.8% | PC-3 prostate 101% | SK-MEL-5 melanoma 101% | UACC-62 melanoma 108% | LOX IMVI melanoma 96.8% | SK-MEL-28 melanoma 118%

Cc1ccc(OP(=O)(Nc2ccc([N+](=O)[O-])cn2)Oc2ccc(C)cc2)cc1
inactive: DU-145 prostate 116% | K-562 leukemia 98% | MALME-3M melanoma 117% | MDA-MB-231 breast 88.6% | RXF 393 renal 46.5% | SF-268 CNS 98.7% | SF-295 CNS 124% | SF-539 CNS 104% | UACC-257 melanoma 90.2% | M14 melanoma 97.9% | HCT-15 colon 98.8% | HT29 colon 108% | SNB-75 CNS 101% | SNB-19 CNS 116% | U251 CNS 96.9% | PC-3 prostate 91.6% | SK-MEL-5 melanoma 97.9% | UACC-62 melanoma 82.1% | LOX IMVI melanoma 99.2% | SK-MEL-28 melanoma 119%

ClC(Cl)(Cl)C1SCCS1
inactive: DU-145 prostate 108% | K-562 leukemia 80.6% | MALME-3M melanoma 108% | MDA-MB-231 breast 101% | RXF 393 renal 129% | SF-268 CNS 109% | SF-295 CNS 96.9% | SF-539 CNS 116% | UACC-257 melanoma 86.4% | M14 melanoma 109% | HCT-15 colon 101% | HT29 colon 93.8% | SNB-75 CNS 106% | SNB-19 CNS 99.2% | U251 CNS 92.2% | PC-3 prostate 108% | SK-MEL-5 melanoma 115% | UACC-62 melanoma 102% | LOX IMVI melanoma 92.3% | SK-MEL-28 melanoma 112%

CCN(CCI)Cc1cccc2ccccc12
inactive: DU-145 prostate 104% | K-562 leukemia 104% | MALME-3M melanoma 102% | MDA-MB-231 breast 102% | RXF 393 renal 109% | SF-268 CNS 101% | SF-295 CNS 93.7% | SF-539 CNS 103% | UACC-257 melanoma 102% | M14 melanoma 101% | HCT-15 colon 103% | HT29 colon 99.2% | SNB-75 CNS 86.8% | SNB-19 CNS 100% | U251 CNS 97.7% | PC-3 prostate 96.3% | SK-MEL-5 melanoma 101% | UACC-62 melanoma 97.1% | LOX IMVI melanoma 95.3% | SK-MEL-28 melanoma 109%

C/C(N)=N/P(=O)(Oc1ccccc1)Oc1ccccc1
inactive: DU-145 prostate 107% | K-562 leukemia 95.9% | MALME-3M melanoma 90% | MDA-MB-231 breast 109% | RXF 393 renal 118% | SF-268 CNS 106% | SF-295 CNS 111% | SF-539 CNS 104% | UACC-257 melanoma 95.9% | M14 melanoma 96.3% | HCT-15 colon 102% | HT29 colon 95.9% | SNB-75 CNS 89.1% | SNB-19 CNS 101% | U251 CNS 103% | PC-3 prostate 101% | SK-MEL-5 melanoma 100% | UACC-62 melanoma 101% | LOX IMVI melanoma 97.5% | SK-MEL-28 melanoma 114%

Cc1nn(Cc2ccccc2)c(C)c1C1(O)C[C@H](CC#N)OC1=O (stereo not given in full)
inactive: DU-145 prostate 106% | K-562 leukemia 121% | MALME-3M melanoma 117% | MDA-MB-231 breast 114% | RXF 393 renal 137% | SF-268 CNS 121% | SF-295 CNS 135% | SF-539 CNS 124% | UACC-257 melanoma 118% | M14 melanoma 54.4% | HCT-15 colon 119% | HT29 colon 114% | SNB-75 CNS 105% | SNB-19 CNS 110% | U251 CNS 111% | PC-3 prostate 102% | SK-MEL-5 melanoma 97.2% | UACC-62 melanoma 104% | LOX IMVI melanoma 107% | SK-MEL-28 melanoma 125%

CC(C)c1nc(Nc2ccccc2)n(P(=O)(N(C)C)N(C)C)n1
inactive: DU-145 prostate 116% | K-562 leukemia 121% | MALME-3M melanoma 109% | MDA-MB-231 breast 102% | RXF 393 renal 121% | SF-268 CNS 102% | SF-295 CNS 94.9% | SF-539 CNS 102% | UACC-257 melanoma 92.8% | M14 melanoma 108% | HCT-15 colon 97.9% | HT29 colon 98.9% | SNB-75 CNS 100% | SNB-19 CNS 106% | U251 CNS 98.7% | PC-3 prostate 101% | SK-MEL-5 melanoma 102% | UACC-62 melanoma 105% | LOX IMVI melanoma 108% | SK-MEL-28 melanoma 109%

CN(CCCl)/N=N/c1nc2nc[nH]c(=O)c2[nH]1
inactive: DU-145 prostate 105% | K-562 leukemia 99.9% | MALME-3M melanoma 104% | MDA-MB-231 breast 110% | RXF 393 renal 115% | SF-268 CNS 99.4% | SF-295 CNS 93.9% | SF-539 CNS 92.3% | UACC-257 melanoma 103% | M14 melanoma 106% | HCT-15 colon 103% | HT29 colon 98.7% | SNB-75 CNS 93.1% | SNB-19 CNS 103% | U251 CNS 101% | PC-3 prostate 98.7% | SK-MEL-5 melanoma 103% | UACC-62 melanoma 101% | LOX IMVI melanoma 98.4% | SK-MEL-28 melanoma 113%

CCOCCN(CCCl)Cc1ccccc1
inactive: DU-145 prostate 107% | K-562 leukemia 92% | MALME-3M melanoma 102% | MDA-MB-231 breast 107% | RXF 393 renal 108% | SF-268 CNS 97.7% | SF-295 CNS 107% | SF-539 CNS 94.4% | UACC-257 melanoma 97.3% | M14 melanoma 110% | HCT-15 colon 111% | HT29 colon 95.5% | SNB-75 CNS 100% | SNB-19 CNS 103% | U251 CNS 96.3% | PC-3 prostate 88.6% | SK-MEL-5 melanoma 104% | UACC-62 melanoma 99.8% | LOX IMVI melanoma 97.5% | SK-MEL-28 melanoma 105%

O=[N+]([O-])N1CCCS1(=O)=O
inactive: DU-145 prostate 108% | K-562 leukemia 95.8% | MALME-3M melanoma 98.4% | MDA-MB-231 breast 115% | RXF 393 renal 110% | SF-268 CNS 89.7% | SF-295 CNS 105% | SF-539 CNS 102% | UACC-257 melanoma 103% | M14 melanoma 105% | HCT-15 colon 106% | HT29 colon 97.5% | SNB-75 CNS 87.9% | SNB-19 CNS 114% | U251 CNS 97.6% | PC-3 prostate 81.6% | SK-MEL-5 melanoma 99.5% | UACC-62 melanoma 113% | LOX IMVI melanoma 97.9% | SK-MEL-28 melanoma 106%

O=[As](O)(O)c1ccc(I)cc1
inactive: DU-145 prostate 103% | K-562 leukemia 101% | MALME-3M melanoma 112% | MDA-MB-231 breast 110% | RXF 393 renal 103% | SF-268 CNS 108% | SF-295 CNS 105% | SF-539 CNS 103% | UACC-257 melanoma 99.3% | M14 melanoma 106% | HCT-15 colon 103% | HT29 colon 105% | SNB-75 CNS 88.4% | SNB-19 CNS 103% | U251 CNS 95.7% | PC-3 prostate 98% | SK-MEL-5 melanoma 109% | UACC-62 melanoma 100% | LOX IMVI melanoma 71.3% | SK-MEL-28 melanoma 104%

O=C(Oc1c(Cl)cc(Cl)cc1[N+](=O)[O-])c1cc([N+](=O)[O-])cc([N+](=O)[O-])c1
inactive: DU-145 prostate 114% | K-562 leukemia 87.5% | MALME-3M melanoma 132% | MDA-MB-231 breast 109% | RXF 393 renal 109% | SF-268 CNS 101% | SF-295 CNS 106% | SF-539 CNS 105% | UACC-257 melanoma 101% | M14 melanoma 101% | HCT-15 colon 105% | HT29 colon 111% | SNB-75 CNS 103% | SNB-19 CNS 118% | U251 CNS 104% | PC-3 prostate 87.2% | SK-MEL-5 melanoma 104% | UACC-62 melanoma 106% | LOX IMVI melanoma 94.6% | SK-MEL-28 melanoma 116%

Cc1ccc(S(=O)(=O)N(CCCN)CCCc2c(C)nc(N)[nH]c2=O)cc1
inactive: DU-145 prostate 109% | K-562 leukemia 95.9% | MALME-3M melanoma 113% | MDA-MB-231 breast 108% | RXF 393 renal 101% | SF-268 CNS 98.7% | SF-295 CNS 100% | SF-539 CNS 96% | UACC-257 melanoma 101% | M14 melanoma 100% | HCT-15 colon 98.3% | HT29 colon 96.7% | SNB-75 CNS 70.4% | SNB-19 CNS 91.3% | U251 CNS 89.3% | PC-3 prostate 88.5% | SK-MEL-5 melanoma 102% | UACC-62 melanoma 101% | LOX IMVI melanoma 95.9% | SK-MEL-28 melanoma 109%

Nc1ccc(CCCCOc2ccccc2)cc1
inactive: DU-145 prostate 88.8% | K-562 leukemia 63.3% | MALME-3M melanoma 98% | MDA-MB-231 breast 80.4% | RXF 393 renal 83.5% | SF-268 CNS 65.9% | SF-295 CNS 99.9% | SF-539 CNS 86.3% | UACC-257 melanoma 96.4% | M14 melanoma 98.2% | HCT-15 colon 103% | HT29 colon 99.6% | SNB-75 CNS 78.2% | SNB-19 CNS 87% | U251 CNS 75.4% | PC-3 prostate 79% | SK-MEL-5 melanoma 88.9% | UACC-62 melanoma 83.3% | LOX IMVI melanoma 96.2% | SK-MEL-28 melanoma 109%

Nc1ccccc1[As](=O)(O)c1ccccc1
inactive: DU-145 prostate 111% | K-562 leukemia 125% | MALME-3M melanoma 95.8% | MDA-MB-231 breast 105% | RXF 393 renal 100% | SF-268 CNS 114% | SF-295 CNS 105% | SF-539 CNS 104% | UACC-257 melanoma 89.9% | M14 melanoma 98.9% | HCT-15 colon 107% | HT29 colon 109% | SNB-75 CNS 98.1% | SNB-19 CNS 101% | U251 CNS 100% | PC-3 prostate 86.5% | SK-MEL-5 melanoma 108% | UACC-62 melanoma 103% | LOX IMVI melanoma 104% | SK-MEL-28 melanoma 105%
